{"source": "patent US20180258163A1", "about": "(Chugai, published 2018)", "binders": {"B1": {"name": "CFP0020H0261-G1dP1/CFP0018H0012-G1dN1/CFP0020L233-009-k0 (bispecific antibody, human IgG1, kappa)", "heavy 1": "not shown", "heavy 2": "not shown", "light": "DIQMTQSPSSLSASVGDRVTITCRASQSIHNDLAWYRQKPGKAPKLLIYEASELQSGVPSRFSGSGSGTDFTLTISSLQPEDFATYYCQHYSSYPYTFGQGTKVEIKRTVAAPSVFIFPPSDEQLKSGTASVVCLLNNFYPREAKVQWKVDNALQSGNSQESVTEQDSKDSTYSLSSTLTLSKADYEKHKVYACEVTHQGLSSPVTKSFNRGEC"}, "B2": {"name": "CFP0020H0261-G1dP1/CFP0018H0012-G1dN1/CFP0020L233-045-k0 (bispecific antibody, human IgG1, kappa)", "heavy 1": "not shown", "heavy 2": "not shown", "light": "B1 light with R37Q, S65R, Q79K"}, "B3": {"name": "CFP0020H0261-G1dP1/CFP0018H0012-G1dN1/CFP0020L233-037-k0 (bispecific antibody, human IgG1, kappa)", "heavy 1": "not shown", "heavy 2": "not shown", "light": "B1 light with R37Q, G41R, S52R, S56R, S76R, Q79K"}, "B4": {"name": "CFP0020H0261-G1dP1/CFP0018H0012-G1dN1/CFP0020L233-021-k0 (bispecific antibody, human IgG1, kappa)", "heavy 1": "not shown", "heavy 2": "not shown", "light": "B1 light with Q27R, R37Q, S76R, Q79K"}, "B5": {"name": "CFP0020H0261-G1dP1/CFP0018H0012-G1dN1/CFP0020L233-043-k0 (bispecific antibody, human IgG1, kappa)", "heavy 1": "not shown", "heavy 2": "not shown", "light": "B1 light with Q27R, R37Q, S65R, T69R, S76R, Q79K"}, "B6": {"name": "CFP0020H0261-G1dP1/CFP0018H0012-G1dN1/CFP0020L233-019-k0 (bispecific antibody, human IgG1, kappa)", "heavy 1": "not shown", "heavy 2": "not shown", "light": "B1 light with R37Q, S65R, T69R, T74K, S77R"}, "B7": {"name": "CFP0020H0261-G1dP1/CFP0018H0012-G1dN1/CFP0020L233-027-k0 (bispecific antibody, human IgG1, kappa)", "heavy 1": "not shown", "heavy 2": "not shown", "light": "B1 light with Q27R, R37Q, G41R, T74K, S77R"}, "B8": {"name": "CFP0020H0261-G1dP1/CFP0018H0012-G1dN1/CFP0020L233-044-k0 (bispecific antibody, human IgG1, kappa)", "heavy 1": "not shown", "heavy 2": "not shown", "light": "B1 light with R37Q, S76R"}, "B9": {"name": "CFP0020H0261-G1dP1/CFP0018H0012-G1dN1/CFP0020L233-017-k0 (bispecific antibody, human IgG1, kappa)", "heavy 1": "not shown", "heavy 2": "not shown", "light": "B1 light with R37Q, L46R, Y49K, T74K, S77R"}, "B10": {"name": "CFP0020H0261-G1dP1/CFP0018H0012-G1dN1/CFP0020L233-038-k0 (bispecific antibody, human IgG1, kappa)", "heavy 1": "not shown", "heavy 2": "not shown", "light": "B1 light with R37Q, G41R, S65R, T69R, S76R, Q79K"}, "B11": {"name": "CFP0020H0261-G1dP1/CFP0018H0012-G1dN1/CFP0020L233-024-k0 (bispecific antibody, human IgG1, kappa)", "heavy 1": "not shown", "heavy 2": "not shown", "light": "B1 light with R37Q, S52R, S56R, S76R, Q79K"}, "B12": {"name": "CFP0020H0261-G1dP1/CFP0018H0012-G1dN1/CFP0020L233-016-k0 (bispecific antibody, human IgG1, kappa)", "heavy 1": "not shown", "heavy 2": "not shown", "light": "B1 light with R37Q, G41R, T74K, S77R"}, "B13": {"name": "CFP0020H0261-G1dP1/CFP0018H0012-G1dN1/CFP0020L233-028-k0 (bispecific antibody, human IgG1, kappa)", "heavy 1": "not shown", "heavy 2": "not shown", "light": "B1 light with R37Q, G41R, S52R, S56R, T74K, S77R"}, "B14": {"name": "CFP0020H0261-G1dP1/CFP0018H0012-G1dN1/CFP0020L233-031-k0 (bispecific antibody, human IgG1, kappa)", "heavy 1": "not shown", "heavy 2": "not shown", "light": "B1 light with Q27R, R37Q, S52R, S56R, T74K, S77R"}, "B15": {"name": "CFP0020H0261-G1dP1/CFP0018H0012-G1dN1/CFP0020L233-036-k0 (bispecific antibody, human IgG1, kappa)", "heavy 1": "not shown", "heavy 2": "not shown", "light": "B1 light with Q27R, R37Q, G41R, S76R, Q79K"}, "B16": {"name": "CFP0020H0261-G1dP1/CFP0018H0012-G1dN1/CFP0020L233-011-k0 (bispecific antibody, human IgG1, kappa)", "heavy 1": "not shown", "heavy 2": "not shown", "light": "B1 light with R37Q, L46R, Y49K"}, "B17": {"name": "CFP0020H0261-G1dP1/CFP0018H0012-G1dN1/CFP0020L233-012-k0 (bispecific antibody, human IgG1, kappa)", "heavy 1": "not shown", "heavy 2": "not shown", "light": "B1 light with R37Q, S52R, S56R"}, "B18": {"name": "CFP0020H0261-G1dP1/CFP0018H0012-G1dN1/CFP0020L233-029-k0 (bispecific antibody, human IgG1, kappa)", "heavy 1": "not shown", "heavy 2": "not shown", "light": "B1 light with R37Q, G41R, S65R, T69R, T74K, S77R"}, "B19": {"name": "CFP0020H0261-G1dP1/CFP0018H0012-G1dN1/CFP0020L233-032-k0 (bispecific antibody, human IgG1, kappa)", "heavy 1": "not shown", "heavy 2": "not shown", "light": "B1 light with R37Q, S52R, S56R, S65R, T69R, T74K, S77R"}, "B20": {"name": "CFP0020H0261-G1dP1/CFP0018H0012-G1dN1/CFP0020L233-034-k0 (bispecific antibody, human IgG1, kappa)", "heavy 1": "not shown", "heavy 2": "not shown", "light": "B1 light with Q27R, R37Q, S65R, T69R, T74K, S77R"}, "B21": {"name": "CFP0020H0261-G1dP1/CFP0018H0012-G1dN1/CFP0020L233-010-k0 (bispecific antibody, human IgG1, kappa)", "heavy 1": "not shown", "heavy 2": "not shown", "light": "B1 light with R37Q, G41R"}, "B22": {"name": "CFP0020H0261-G1dP1/CFP0018H0012-G1dN1/CFP0020L233-023-k0 (bispecific antibody, human IgG1, kappa)", "heavy 1": "not shown", "heavy 2": "not shown", "light": "B1 light with R37Q, L46R, Y49K, S76R, Q79K"}, "B23": {"name": "CFP0020H0261-G1dP1/CFP0018H0012-G1dN1/CFP0020L233-041-k0 (bispecific antibody, human IgG1, kappa)", "heavy 1": "not shown", "heavy 2": "not shown", "light": "B1 light with R37Q, S52R, S56R, S65R, T69R, S76R, Q79K"}, "B24": {"name": "CFP0020H0261-G1dP1/CFP0018H0012-G1dN1/CFP0020L233-022-k0 (bispecific antibody, human IgG1, kappa)", "heavy 1": "not shown", "heavy 2": "not shown", "light": "B1 light with R37Q, G41R, S76R, Q79K"}, "B25": {"name": "CFP0020H0261-G1dP1/CFP0018H0012-G1dN1/CFP0020L233-018-k0 (bispecific antibody, human IgG1, kappa)", "heavy 1": "not shown", "heavy 2": "not shown", "light": "B1 light with R37Q, S52R, S56R, T74K, S77R"}, "B26": {"name": "CFP0020H0261-G1dP1/CFP0018H0012-G1dN1/CFP0020L233-040-k0 (bispecific antibody, human IgG1, kappa)", "heavy 1": "not shown", "heavy 2": "not shown", "light": "B1 light with Q27R, R37Q, S52R, S56R, S76R, Q79K"}, "B27": {"name": "CFP0020H0261-G1dP1/CFP0018H0012-G1dN1/CFP0020L233-025-k0 (bispecific antibody, human IgG1, kappa)", "heavy 1": "not shown", "heavy 2": "not shown", "light": "B1 light with R37Q, S65R, T69R, S76R, Q79K"}}, "note": "Positions count from the first letter of the chain named.", "data": [{"target": "T1, soluble human FcγRIIb (human, UniProt P31994 43-217, limits assumed)", "T1 construct": "soluble His-tagged form; also called hFcγRIIb", "T1 sequence (looked up)": "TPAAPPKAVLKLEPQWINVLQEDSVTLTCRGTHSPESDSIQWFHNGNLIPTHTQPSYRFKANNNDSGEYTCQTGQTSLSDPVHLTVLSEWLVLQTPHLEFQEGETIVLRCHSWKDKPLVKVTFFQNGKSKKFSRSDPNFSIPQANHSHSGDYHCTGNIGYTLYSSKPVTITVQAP", "assay": "SPR, Ab-antigen (C5) complex over captured hFcγRIIb, pH 7.4, 25C", "procedure": "An appropriate amount of an anti-His antibody was fixed onto Sensor chip CM5 (GE Healthcare) by the amine coupling method using a His capture kit (GE Healthcare) to capture hFcγRIIb. […] 20 mM N-(2-Acetamido)-2-aminoethanesulfonic acid, 150 mM NaCl, 1.2 mM CaCl₂, and 0.05% (w/v) Tween 20 at pH 7.4 was used as the running buffer, and the respective buffer was also used to dilute the soluble hFcγRIIb. To regenerate the sensor chip, 10 mM glycine-HCl at pH 1.5 was used. All measurements were carried out at 25° C. […] To calculate the parameters, the BIACORE T100 Evaluation Software (GE Healthcare) was used.", "units": {"BIACORE fold (relative binding, original Ab2=1.00)": "fold"}, "values": [{"binder": "B1", "BIACORE fold (relative binding, original Ab2=1.00)": 0.78}, {"binder": "B2", "BIACORE fold (relative binding, original Ab2=1.00)": 1.46}, {"binder": "B3", "BIACORE fold (relative binding, original Ab2=1.00)": 2.43}, {"binder": "B4", "BIACORE fold (relative binding, original Ab2=1.00)": 1.77}, {"binder": "B5", "BIACORE fold (relative binding, original Ab2=1.00)": 3.51}, {"binder": "B6", "BIACORE fold (relative binding, original Ab2=1.00)": 7.72}, {"binder": "B7", "BIACORE fold (relative binding, original Ab2=1.00)": 2.24}, {"binder": "B8", "BIACORE fold (relative binding, original Ab2=1.00)": 1.25}, {"binder": "B9", "BIACORE fold (relative binding, original Ab2=1.00)": 0.18}, {"binder": "B10", "BIACORE fold (relative binding, original Ab2=1.00)": 4.24}, {"binder": "B11", "BIACORE fold (relative binding, original Ab2=1.00)": 2.16}, {"binder": "B12", "BIACORE fold (relative binding, original Ab2=1.00)": 1.96}, {"binder": "B13", "BIACORE fold (relative binding, original Ab2=1.00)": 1.94}, {"binder": "B14", "BIACORE fold (relative binding, original Ab2=1.00)": 1.78}, {"binder": "B15", "BIACORE fold (relative binding, original Ab2=1.00)": 2.45}, {"binder": "B16", "BIACORE fold (relative binding, original Ab2=1.00)": 0.14}, {"binder": "B17", "BIACORE fold (relative binding, original Ab2=1.00)": 0.68}, {"binder": "B18", "BIACORE fold (relative binding, original Ab2=1.00)": 9.63}, {"binder": "B19", "BIACORE fold (relative binding, original Ab2=1.00)": 11.1}, {"binder": "B20", "BIACORE fold (relative binding, original Ab2=1.00)": 8.61}, {"binder": "B21", "BIACORE fold (relative binding, original Ab2=1.00)": 1.01}, {"binder": "B22", "BIACORE fold (relative binding, original Ab2=1.00)": 0.18}, {"binder": "B23", "BIACORE fold (relative binding, original Ab2=1.00)": 5.78}, {"binder": "B24", "BIACORE fold (relative binding, original Ab2=1.00)": 2.04}, {"binder": "B25", "BIACORE fold (relative binding, original Ab2=1.00)": 1.43}, {"binder": "B26", "BIACORE fold (relative binding, original Ab2=1.00)": 2.32}, {"binder": "B27", "BIACORE fold (relative binding, original Ab2=1.00)": 3.18}]}]}
